Data as given in patent publication EP4630114B1, “NEW CYANOPYRIDINE KHK INHIBITOR COMPOUNDS” (dated 2026).

Amino acid sequences for entries named in this document (tags omitted).
UniProt P50053, whole entry: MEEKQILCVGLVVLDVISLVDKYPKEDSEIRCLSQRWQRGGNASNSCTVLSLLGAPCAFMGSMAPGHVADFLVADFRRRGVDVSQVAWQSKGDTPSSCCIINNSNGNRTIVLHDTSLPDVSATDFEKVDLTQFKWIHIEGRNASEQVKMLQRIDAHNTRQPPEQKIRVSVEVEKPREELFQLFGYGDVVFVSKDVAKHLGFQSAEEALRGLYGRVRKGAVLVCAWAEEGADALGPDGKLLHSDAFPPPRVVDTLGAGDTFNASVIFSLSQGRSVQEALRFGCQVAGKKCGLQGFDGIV

Molecular target: recombinant human KHK-C (Homo sapiens, UniProt P50053)
Experiment: Human KHK-C inhibition assay (Assay A, ADP-GLO Kinase Assay)
Settings: read-out: KHK inhibition assay (Assay A) IC50; His-tagged human KHK-C (1 µg/ml), 400 µM D-fructose, 200 µM ATP, 60 min at room temperature

({[3-({6-[cis-octahydropyrrolo[3,4-c]pyrrol-2-yl]-3-cyano-4-(trifluoromethyl)pyridin-2-yl}amino)-4-methylsulfanyl)phenyl]methoxy}(methyl)phosphinic acid
IC50: 2.3 nM

Only a part of the results on these compounds is given; other tests are left out.
